This assay has as its target Carbonic anhydrase (Methanosarcina thermophila, UniProt P40881). Briefly: Inhibition of archaeon Methanosarcina thermophila gamma-CA after 15 mins by stopped-flow/Co2 hydration assay.

Chains of the proteins cited; added tags and fusions are not shown. Residues count along the entry.
UniProt P40881, 35-247 limits assumed: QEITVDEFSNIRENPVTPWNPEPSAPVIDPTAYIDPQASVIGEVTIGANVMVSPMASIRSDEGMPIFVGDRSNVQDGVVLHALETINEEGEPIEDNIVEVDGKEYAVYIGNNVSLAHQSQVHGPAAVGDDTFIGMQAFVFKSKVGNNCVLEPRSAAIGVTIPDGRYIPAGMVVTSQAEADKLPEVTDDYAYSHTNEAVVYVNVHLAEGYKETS

The structures appear in SMILES notation.

What is called Ki is a measure of affinity in units of concentration, obtained from inhibition or displacement. Lower therefore signals a stronger hold on the target. The compound `N#CO` had a Ki of 90 µM.

Source of the values: ChEMBL document CHEMBL3593236, “Cloning, characterization and anion inhibition studies of a new γ-carbonic anhydrase from the Antarctic bacterium Pseudoalteromonas haloplanktis” (Bioorg Med Chem, 2015).
